Measurements as given in patent US8252899B2, “Methods and compositions for obtaining high-resolution crystals of membrane proteins” (The Scripps Research Institute, priority 2007, dated 2012).

Test system: β2AR-T4L
Assay: Competition binding against 0.5 nM [3H]DHA, Sf9 membranes, β2AR-T4L
Design: species or system human

Compound: COc1ccc(CC(C)NCC(O)c2ccc(O)c(NC=O)c2)cc1 (stereo not shown)
- affinity for β2AR-T4L relative to wild-type β2AR (competition binding): two to three-fold higher
